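Growth conditions: 96-well plates. Treatment: test compound, 48 hours, 5 concentrations. Analysis: linear interpolation between bracketing concentrations; unreached endpoints set to highest concentration. TGI: total growth inhibition.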
Experiments:
Assay in all cases: NCI anticancer screen, dose series, 48 h
RXF 393 renal = system: RXF 393 renal
ACHN renal = system: ACHN renal
SW-620 colon = system: SW-620 colon
SN12C renal = system: SN12C renal
SF-539 CNS = system: SF-539 CNS
HT29 colon = system: HT29 colon
HOP-62 NSCLC = system: HOP-62 NSCLC
MDA-MB-231 breast = system: MDA-MB-231 breast
M14 melanoma = system: M14 melanoma
OVCAR-5 ovarian = system: OVCAR-5 ovarian
UO-31 renal = system: UO-31 renal
SK-MEL-28 melanoma = system: SK-MEL-28 melanoma
OVCAR-3 ovarian = system: OVCAR-3 ovarian
U251 CNS = system: U251 CNS
MCF7 breast = system: MCF7 breast
CAKI-1 renal = system: CAKI-1 renal
HL-60(TB) leukemia = system: HL-60(TB) leukemia
SNB-75 CNS = system: SNB-75 CNS
HCT-116 colon = system: HCT-116 colon
UACC-62 melanoma = system: UACC-62 melanoma
DU-145 prostate = system: DU-145 prostate
TK-10 renal = system: TK-10 renal
NCI-H23 lung = system: NCI-H23 lung
IGROV1 ovarian = system: IGROV1 ovarian
SR leukemia = system: SR leukemia
SK-MEL-2 melanoma = system: SK-MEL-2 melanoma
MOLT-4 leukemia = system: MOLT-4 leukemia
HCC-2998 colon = system: HCC-2998 colon
NCI-H226 lung = system: NCI-H226 lung
SF-268 CNS = system: SF-268 CNS
UACC-257 melanoma = system: UACC-257 melanoma
MDA-MB-435 = system: MDA-MB-435
BT-549 breast = system: BT-549 breast
HS 578T breast = system: HS 578T breast
T-47D breast = system: T-47D breast
HOP-92 NSCLC = system: HOP-92 NSCLC
NCI/ADR-RES ovarian = system: NCI/ADR-RES ovarian
LOX IMVI melanoma = system: LOX IMVI melanoma
NCI-H460 lung = system: NCI-H460 lung
CCRF-CEM leukemia = system: CCRF-CEM leukemia
PC-3 prostate = system: PC-3 prostate
OVCAR-8 ovarian = system: OVCAR-8 ovarian
MDA-N = system: MDA-N
KM12 colon = system: KM12 colon
786-0 renal = system: 786-0 renal
EKVX NSCLC = system: EKVX NSCLC
SK-MEL-5 melanoma = system: SK-MEL-5 melanoma
MALME-3M melanoma = system: MALME-3M melanoma
SNB-19 CNS = system: SNB-19 CNS
A549 NSCLC = system: A549 NSCLC
OVCAR-4 ovarian = system: OVCAR-4 ovarian
SK-OV-3 ovarian = system: SK-OV-3 ovarian
RPMI-8226 leukemia = system: RPMI-8226 leukemia
COLO 205 colon = system: COLO 205 colon
SF-295 CNS = system: SF-295 CNS
K-562 leukemia = system: K-562 leukemia

Measured: TGI

CCOC1=NC(C(F)(F)F)(C(F)(F)F)N=C(NC2=NP(=O)(OCC)C(C)(C)N2C)O1 (stereo unspecified)
> 100 µM: all assays above

Source: PubChem BioAssay (NCI)
